“Also recorded” adds a separate entry of the source.
What was measured:
[1] = target: fibrin (fibrin I monomers) (UniProt P02671)
[2] = target: fibrinogen (UniProt P02671)
[3] = target: protein C (UniProt P04070)
[4] = tested on: TR^33-62, extracellular fragment of the platelet receptor PAR-1 spanning residues 33-62

Row | Substance | Fibrin kcat/Km (fibrinopeptide B release from fibrin I monomers) [1] | Fibrinogen kcat/Km (fibrinopeptide A release) [2] | Protein C kcat/Km, with 100 nM rabbit thrombomodulin and 5 mM CaCl2 [3] | PAR-1 kcat/Km (cleavage of TR33-62) [4] | fold reduction of PAR-1 cleavage against wild-type [4] | Fibrin kcat/Km [1] | Fibrinogen kcat/Km [2] | Protein C + TM kcat/Km (100 nM rabbit thrombomodulin, 5 mM CaCl2) [3] | Protein C - TM kcat/Km (no thrombomodulin, 5 mM CaCl2) [3] | PAR1 kcat/Km [4] | further results
1 | variant thrombin W215A | 0.053 µM⁻¹ s⁻¹ | 0.034 µM⁻¹ s⁻¹ | 0.075 µM⁻¹ s⁻¹ | 1 µM⁻¹ s⁻¹ | the reduction in antithrombin III binding and PAR-1 cleavage is about 20-fold; also recorded: moderate loss of PAR-1 cleavage (26-fold reduction) | – | – | – | – | – | fold loss of fibrinogen cleavage against wild-type [2]: The disruption of fibrinogen cleavage reaches 500-fold; fold reduction of clotting activity against wild-type [2]: severely compromised clotting activity (about a 500-fold reduction); fold loss of protein C cleavage (with thrombomodulin) against wild-type [3]: insignificant loss of protein C cleavage (only about 3-fold); fold reduction of protein C activation without thrombomodulin against wild-type [3]: The activation of protein C is substantially reduced (150-fold) in the absence of thrombomodulin
2 | variant thrombin W215A/E217A (WE) | – | – | – | – | Cleavage of PAR-1 by the W215A/E217A mutant is reduced 1,000-fold compared to wild-type | 0.0021 µM⁻¹ s⁻¹ | 0.00089 µM⁻¹ s⁻¹ | 33 mM⁻¹ s⁻¹ | 0.57 M⁻¹ s⁻¹ | 0.026 µM⁻¹ s⁻¹ | fold reduction of fibrin cleavage against wild-type [1]: cleavage of fibrinogen and fibrin are reduced 19,000-fold and 3,800-fold respectively; ΔGc (coupling free energy between the W215A and E217A mutations, from kcat/Km for fibrin) [1]: -0.5 kcal/mol; fold reduction of fibrinogen cleavage against wild-type [2]: cleavage of fibrinogen and fibrin are reduced 19,000-fold and 3,800-fold respectively; ΔGc (coupling free energy between the W215A and E217A mutations, from kcat/Km for fibrinogen) [2]: -0.3 kcal/mol; fold reduction of kcat/Km for protein C with thrombomodulin against wild-type [3]: The value of kcat/Km is reduced 300-fold in the absence of thrombomodulin and only 7-fold in the presence of the cofactor; fold reduction of kcat/Km for protein C without thrombomodulin against wild-type [3]: The value of kcat/Km is reduced 300-fold in the absence of thrombomodulin and only 7-fold in the presence of the cofactor; rate of protein C activation with thrombomodulin against wild-type [3]: at a rate only 6-fold slower compared to wild-type thrombin; ΔGc (coupling free energy between the W215A and E217A mutations, from kcat/Km for protein C with thrombomodulin) [3]: 0.2 kcal/mol; ΔGc (coupling free energy between the W215A and E217A mutations, from kcat/Km for protein C without thrombomodulin) [3]: -1.1 kcal/mol; ΔGc (coupling free energy between the W215A and E217A mutations, from kcat/Km for PAR1) [4]: 0 kcal/mol
3 | wild-type human α-thrombin | 8.1 µM⁻¹ s⁻¹ | 17 µM⁻¹ s⁻¹ | 0.22 µM⁻¹ s⁻¹ | 26 µM⁻¹ s⁻¹ | – | 8.1 µM⁻¹ s⁻¹ | 17 µM⁻¹ s⁻¹ | 220 mM⁻¹ s⁻¹ | 150 M⁻¹ s⁻¹ | 26 µM⁻¹ s⁻¹ | Km for cleavage of TR33-62 [4]: Attempts to measure the value of Km indicated a value >10 µM
4 | variant thrombin E217A | – | – | – | – | – | 0.15 µM⁻¹ s⁻¹ | 0.27 µM⁻¹ s⁻¹ | 140 mM⁻¹ s⁻¹ | 15 M⁻¹ s⁻¹ | 0.66 µM⁻¹ s⁻¹ | –

— patent publication US20040120943
